## Ab-14 light chain CDR variants: yeast mating affinities

Source: Li et al. 2023 (doi:10.1038/s41467-023-39022-2), MIT Lincoln Laboratory and A-Alpha Bio; data file from the FLAb repository.

Antigen: PDVDLGDISGINAS, a 14-residue peptide of the SARS-CoV-2 spike HR2 region.

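Designed CDR sequences, proposed from the first random library and measured here. Several design methods are mixed in this list. The scFvs were displayed on barcoded MATa yeast, the peptide on MATalpha yeast. After mating in shaken culture at 30 °C for 16 h, diploids were selected and their barcode pairs sequenced. Read counts were normalised to the haploid input and turned into Kd by a linear fit to BCL2-family pairs of known affinity, for each replicate. The assay was run in six technical replicates.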

Each scFv is VH, a (GGGGS)3 linker, VL, as in the parent Ab-14, and differs from it in the CDRs of the light chain only.
VH: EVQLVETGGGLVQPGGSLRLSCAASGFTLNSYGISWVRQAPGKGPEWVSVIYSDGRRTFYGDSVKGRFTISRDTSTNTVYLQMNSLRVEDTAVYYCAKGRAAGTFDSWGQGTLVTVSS
VL: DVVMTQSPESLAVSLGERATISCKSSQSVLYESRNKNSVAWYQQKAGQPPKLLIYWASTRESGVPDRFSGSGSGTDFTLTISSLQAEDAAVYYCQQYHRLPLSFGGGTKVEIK

Each variant is given by its three light chain CDRs, as the data file delimits them; those of the parent are KSSQSVLYESRNKNSVA, WASTRES, QQYHRLPLS.
Variants here have more than six changes.
Kd is apparent (estimated from mating counts) and averaged on the log scale over replicates with a signal. Smaller is tighter.
An entry "nd" has no value in the source: the pair was not observed among the diploids in any replicate. This suggests poor binding but is not conclusive.
The authors averaged sequences with at least three values out of six and counted those with two or fewer as poor binders.

For MISQVMNTLTRLGNNVA | DLAEREA | QQYFRLPLS, the assay gave 170 nM (2 of 6 replicates; controls 0 of 18). With SIYDATGLESRNKNPIA | DVSTRPS | QQYDRLPLS the result was 1.1 nM (6 of 6 replicates; controls 1 of 18). Variant KMTTNLGHQASRKNSIA | EADMVAA | QQYMRLPLI showed 2.7 nM (6 of 6 replicates; controls 1 of 18). Variant QLFSRWGQLEEIRYAVA | DATTVID | QQYMHLPLT showed 64 nM (5 of 6 replicates; controls 2 of 18). Variant HFSQVTMYGSWNYNSVA | QTSTREE | QQYDRLPLS gave 5.6 nM (6 of 6 replicates; controls 2 of 18). Variant KLGDMVHTESRNRNSIA | DMRTRES | QQYYRLPLS showed 530 pM (6 of 6 replicates; controls 0 of 18). For IVSQLMIWGMHVKNSIA | EAQTRVN | QQYDRLPLF, the assay gave nd (0 of 6 replicates; controls 0 of 18).

For KLSCSMEYESRNKNSVA | NASTREE | QQYHRLPLT, the assay gave 150 nM (6 of 6 replicates; controls 1 of 18). With IVSQLMLWGYHAKNSIA | EAQTRDN | QQYERLPLF the result was 50 nM (6 of 6 replicates; controls 0 of 18). For MFSQSVMYGSFMRNSVA | QTSTRED | QQYDRLPLS, the assay gave 9.6 nM (6 of 6 replicates; controls 1 of 18). With AVVKMKSEGDYHAGNVA | NANLRSD | QQYYRLPLI the result was 1.7 nM (6 of 6 replicates; controls 1 of 18). Variant KVSQLDLGGSRNKNSVA | HAHTRES | QQYHRLPLS gave 16 nM (6 of 6 replicates; controls 5 of 18). With NISHFMDVTAKNINNVA | EQTTREK | QQYHHLPLS the result was 1.8 nM (6 of 6 replicates; controls 1 of 18). For TLYGLSNSMSINKNSVA | EMTTREK | QQYDRLPLV, the assay gave 130 nM (6 of 6 replicates; controls 0 of 18).

Variant KWSISVLQGDRNKNSVA | NASCREQ | QQYHRLPLS gave 7.9 nM (6 of 6 replicates; controls 1 of 18). For HMSDSIEKMASHARNIA | DETTLAM | QQYYRLPLS, the assay gave 880 pM (6 of 6 replicates; controls 0 of 18). Variant MAYGGDMLESVARNSVA | NAETRAD | QDYHRLPLS showed 3.7 nM (6 of 6 replicates; controls 0 of 18). With SLMQVAGYESNAHNSIA | DLRTRES | QQYHRLPLS the result was 90 nM (6 of 6 replicates; controls 0 of 18). With QMTFQLFEQGNRSGPIA | HESMRET | QQYASLPLT the result was 130 nM (2 of 6 replicates; controls 0 of 18). With KISMHYNFASTNKNSIA | EMTTRES | QHYHRLPLS the result was 2.7 nM (6 of 6 replicates; controls 0 of 18). Variant TIYQTLSIGSRNRSNVA | EVSERLN | QQYDRLPLI gave 200 nM (6 of 6 replicates; controls 0 of 18).

With GHDHTMDSGKQAPNSIA | NAEQKTI | QQYQRLPLS the result was 2.1 nM (6 of 6 replicates; controls 0 of 18). Variant KLSQSVEQEERNKNSVA | HASVREV | QQYHRLPLS showed 2.5 nM (6 of 6 replicates; controls 0 of 18). Variant NMNVGLNFGGIQHQAIA | EVEKRES | QQYARLPLT gave 5.8 nM (6 of 6 replicates; controls 1 of 18). For MISGAEYGLGMDYANVA | HGQMRED | QQYQRIPLM, the assay gave 1.8 nM (6 of 6 replicates; controls 1 of 18). With HVESAMVESNAHKKNVA | NGQGRVE | QQYGRLPLQ the result was 13 nM (6 of 6 replicates; controls 0 of 18). Variant KVMQSKEYESRQKNSVA | NASQREL | QQYHRLPLS gave 2.8 nM (6 of 6 replicates; controls 2 of 18). Variant ILSQSVLMGMHLKNSVA | QATMRFN | QQYHRLPLM showed 41 nM (2 of 6 replicates; controls 0 of 18).

With MVGQGLMGESRAKNSIA | QASLRFD | QQYHRLPFI the result was 18 nM (6 of 6 replicates; controls 1 of 18). For KVQPSWEYEDRNKNSVA | QASQRCS | QQYHRLPLS, the assay gave 660 pM (6 of 6 replicates; controls 0 of 18). For KIYAATMLESHDKNSIA | DLTTRGN | QQYHRLPLS, the assay gave 6.9 nM (6 of 6 replicates; controls 0 of 18). Variant KLSPMDLYESRMSNSVA | MASTRMV | QQYHRLPLS showed 3.7 nM (6 of 6 replicates; controls 2 of 18). With TISQMTSLFSQSINNVA | EVSTREP | QQYDRLPLA the result was 1.4 nM (6 of 6 replicates; controls 0 of 18). Variant MIHESYGNMVMKKNSIA | DNSTRGE | QQYDRLPLS gave 190 nM (6 of 6 replicates; controls 0 of 18). For KLSPSWLYEERNDNSVA | NASQRES | QDYHRLPLS, the assay gave 1.1 nM (6 of 6 replicates; controls 1 of 18).

Variant MISQILNMGQFAINSVA | QAETRCN | QQYDRLPLM showed 340 nM (5 of 6 replicates; controls 1 of 18). For ILSQSVLMGMHLKNSVA | QATTRFD | QQYHRLPLM, the assay gave 5.7 nM (6 of 6 replicates; controls 0 of 18). For VMQMQNDRMQDAAKNIA | GVDMRET | QQYFRLPFL, the assay gave 3.8 nM (6 of 6 replicates; controls 0 of 18). With LVSQQNLYEDRNKNSVA | NASQRLS | QQYHRLPLS the result was 870 pM (6 of 6 replicates; controls 2 of 18). With KLSGATRMESRNKASVA | ENSTRGE | QQYFRLPLS the result was 4.8 nM (6 of 6 replicates; controls 1 of 18). Variant KLSGSVEQLSRNKNSVA | QASTREV | QAYHRLPLS gave 600 pM (6 of 6 replicates; controls 1 of 18).

The 4 strongest on average among those seen in every replicate, once more:

| CDR-L1 | CDR-L2 | CDR-L3 | Kd | seen in | control signals |
|---|---|---|---|---|---|
| KLGDMVHTESRNRNSIA | DMRTRES | QQYYRLPLS | 530 pM | 6 of 6 | 0 of 18 |
| KLSGSVEQLSRNKNSVA | QASTREV | QAYHRLPLS | 600 pM | 6 of 6 | 1 of 18 |
| KVQPSWEYEDRNKNSVA | QASQRCS | QQYHRLPLS | 660 pM | 6 of 6 | 0 of 18 |
| LVSQQNLYEDRNKNSVA | NASQRLS | QQYHRLPLS | 870 pM | 6 of 6 | 2 of 18 |

A sequence measured in both rounds can read differently, since the two assays cover different ranges.
As a blank, each scFv also met three strains without target: over all light chain designs, 4% of these pairings were detected, typically at 430 nM and seldom below 38 nM. Also given: how often the same scFv was detected with the empty control strains.
The parent sequence was in this pool as ten entries: three were never detected, three once, and four in most replicates, with averages from 2.2 nM to 240 nM.